Converted amounts (≈) assume the structure as drawn.

Turning to `CC[C@H](C)[C@H](NC(=O)CN)C(=O)NCC(=O)N[C@@H](C)C(=O)N[C@H](C(=O)N[C@@H](CC(C)C)C(=O)N[C@@H](CCCCN)C(=O)N[C@H](C(=O)N[C@@H](CC(C)C)C(=O)N[C@H](C(=O)N[C@H](C(=O)NCC(=O)N[C@@H](CC(C)C)C(=O)N1CCC[C@H]1C(=O)N[C@@H](C)C(=O)N[C@@H](CC(C)C)C(=O)N[C@H](C(=O)N[C@@H](CO)C(=O)N[C@@H](Cc1c[nH]c2ccccc12)C(=O)N[C@H](C(=O)N[C@@H](CCCCN)C(=O)N[C@@H](CCCNC(=N)N)C(=O)N[C@@H](CCCCN)C(=O)N[C@@H](CCCNC(=N)N)C(=O)N[C@@H](CCC(N)=O)C(=O)N[C@@H](CCC(N)=O)C(N)=O)[C@@H](C)CC)[C@@H](C)CC)[C@@H](C)O)[C@@H](C)O)C(C)C)C(C)C` [Melittine, Melittin, reference compound], the “MIC (µM) P. aeruginosa” value against P. aeruginosa came out at 6.25 µM (≈ 17.8 µg/mL). Moreover, in the assay on E. coli, the “MIC (µM) E. coli” value lay within 6.25 to 12.5 µM and the “MIC against E. coli” value worked out at 12.5 µM (≈ 35.6 µg/mL).

These data come from patent EP3838286B1, “ANTIMICROBIAL PEPTIDE FROM POLISTES GALLICUS VENOM AND ITS ANALOGS” (Latoxan, priority 2019, dated 2021).
